# Measurements from PubChem BioAssay AID624415 (National Center for Advancing Translational Sciences (NCATS), 2012).
# The chains behind the UniProt entries cited, without tags or fusion partners.
# UniProt Q9GZU1, whole entry: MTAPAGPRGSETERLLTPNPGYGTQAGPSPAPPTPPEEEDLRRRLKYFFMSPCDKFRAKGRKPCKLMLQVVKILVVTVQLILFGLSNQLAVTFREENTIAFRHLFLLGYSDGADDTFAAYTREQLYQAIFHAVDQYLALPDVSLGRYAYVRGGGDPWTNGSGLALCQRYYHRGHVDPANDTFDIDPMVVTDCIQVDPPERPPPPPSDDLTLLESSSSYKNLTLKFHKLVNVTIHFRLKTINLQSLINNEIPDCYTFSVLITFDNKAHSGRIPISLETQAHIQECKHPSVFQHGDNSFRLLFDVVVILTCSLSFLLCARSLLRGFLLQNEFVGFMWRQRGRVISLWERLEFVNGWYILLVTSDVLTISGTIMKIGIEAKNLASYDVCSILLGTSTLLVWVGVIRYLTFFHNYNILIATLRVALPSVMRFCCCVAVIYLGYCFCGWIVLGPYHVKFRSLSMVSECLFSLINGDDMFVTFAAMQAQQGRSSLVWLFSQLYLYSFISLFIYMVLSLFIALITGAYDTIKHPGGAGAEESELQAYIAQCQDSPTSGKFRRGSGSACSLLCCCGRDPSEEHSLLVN
# Only a part is listed here, and it is no random draw. Calls of active or inactive are those of the source. Rule as the data show it: active = activity change below about -50%; inconclusive = between about -30% and that limit; inactive = weaker than that.
# Molecular target: Mucolipin-1 (Homo sapiens) (UniProt Q9GZU1)
# Assay: qHTS for Inhibitors of the Human Mucolipin Transient Receptor Potential 1 (TRPML1);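 also: stimulus is agonist 54-4 at its EC80 concentration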
# Settings: TRPML1-inducible cells, Ca2+ dye fluorescence, FDSS; hits give low values; inhibition of EC80 agonist-evoked calcium signal
# Description: Mutations of human Mucolipin transient receptor potential 1 (TRPML1) cause type IV mucolipidosis (ML4), a devastating neurodegenerative disease in young children. […] Currently, there is no treatment for ML4. […] Under physiological conditions, TRPMLs regulate membrane trafficking by transducing information about PI(3,5)P2 levels into changes in juxtaorganellar Ca2+, thereby triggering membrane fusion/fission events in the late endocytic pathways (endolysosomal trafficking). In addition, TRPML1 mediates release of Fe2+ from late endosomes and lysosomes, which is essential for cellular iron metabolism. Thus, impaired ion (Ca2+ and Fe2+) homeostasis underlies lysosomal dysfunction and ML4 phenotypes. In ML4 cells, the problem is twofold. First, defective Ca2+-dependent membrane trafficking due to TRPML1-deficiency causes accumulation of lipids and other bio-materials in the lysosome. […]
# TRPML1-DL cells are dissociated from flasks, counted and, brought up to a density of 500,000 cells per mL of media containing a 1X Tet inducer. […] The assay plate is read on the FDSS using the following protocol: 10 second baseline read, 23 nL of compounds and controls are added using 1536 pintool, agonist read for 110 seconds, 1 uL EC80 addition (4 uM final 54-4 diluted in media), antagonist read for 110 seconds.
# % is scaled to controls: 0 for no effect and ±100 for the full control effect.
row,Compound,"activity change, negative = inhibition"
1,CCC(=O)N(c1ccccc1)C1(COC)CCN(CCc2cccs2)CC1,inactive: 20.6%
2,CCC(=O)N(c1ccccc1)C1(COC)CCN(CCn2nnn(CC)c2=O)CC1,inactive: -5.71%
